Values of other authors in patent US10323029B2 (priority 2014, dated 2019).

Details: in vivo

Which cardiac adverse effects does the source give for `CCCCCCCCc1ccc(CCC(N)(CO)CO)cc1` [FTY720, fingolimod] here?
Its cardiac adverse effects is “significant sinus bradycardia, heart block and a prolongation of QTc interval”.
